Test results taken from ChEMBL document CHEMBL1649093, “Phthalazinone pyrazoles as potent, selective, and orally bioavailable inhibitors of Aurora-A kinase” (J Med Chem, 2011).

Assay: Selectivity for Aurora A over Aurora B

Selectivity ratio	Structure (SMILES)
> 1000	CC(=O)Nc1ccc(Cn2nc(Nc3cc(C)[nH]n3)c3ccccc3c2=O)cc1
> 1000	Cc1cc(Nc2nn(Cc3csc(C)n3)c(=O)c3ccccc23)n[nH]1
> 1000	Cc1cc(Nc2nn(C)c(=O)c3ccccc23)n[nH]1
> 1000	Cc1cc(Nc2nn(Cc3ccncc3)c(=O)c3ccccc23)n[nH]1
> 1000	Cc1cc(Nc2nn(CC(C)C)c(=O)c3ccccc23)n[nH]1
> 1000	Cc1cc(Nc2nn(Cc3ccc([N+](=O)[O-])cc3)c(=O)c3ccccc23)n[nH]1
> 1000	Cc1cc(Nc2nn(Cc3cc(F)ccc3F)c(=O)c3ccccc23)n[nH]1
> 1000	COc1ccc(Cn2nc(Nc3cc(C)[nH]n3)c3ccccc3c2=O)cc1
> 1000	Cc1cc(Nc2nn(Cc3cccnc3)c(=O)c3ccccc23)n[nH]1
> 1000	Cc1cc(Nc2nn(Cc3ccc(S(C)(=O)=O)cc3)c(=O)c3ccccc23)n[nH]1
> 1000	COc1ccc(-n2nc(Nc3cc(C)[nH]n3)c3ccccc3c2=O)cc1
> 1000	Cc1cc(Nc2nn(-c3ccc(F)cc3)c(=O)c3ccccc23)n[nH]1
> 1000	CC(=O)Nc1ccc(Cn2nc(Nc3cc[nH]n3)c3ccccc3c2=O)cc1
